Our source for the Tm shift relative to glycine control values is PubChem BioAssay AID1259313 (Sanford-Burnham Center for Chemical Genomics, 2017).

Structures are written as SMILES. The entries are a selection whose mix differs from that of the whole data set. The source made the active and inactive calls.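 The calls were made as follows: active = melting temperature shift of at least 10% of the positive control shift, at one fixed dose; inactive = the rest.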

This test has as its system Glutamate receptor ionotropic, NMDA 3A (GRIN3A) ligand-binding domain. Description: NR3A LBD thermal stabilization by compounds – biophysical, differential scanning fluorimetry, uHTS, primary screen (AID 1259313). To be noted: at 25 µM, stronger effect = higher value, 0% = protein alone, 100% = glycine-bound protein. Background: In DSF a fluorescence change marks the thermal transition of the protein.
`CC(C)c1ccc(NC2CCN(C(=O)OC(C)(C)C)CC2)cc1`: the Tm shift relative to glycine control was inactive: 0.85%. Regarding `CN(C)c1cccc(C(=O)NCC2(N3CCCCC3)CCCCC2)c1`, the Tm shift relative to glycine control was inactive: 0.08%. Next, `COc1ccc(CN(CCCl)CCCl)cc1Cl`: inactive: -1.26%. As for `O=C(NCC1(N2CCOCC2)CCCCC1)c1cc(F)c(F)cc1Cl`, the Tm shift relative to glycine control was inactive: 0.26%. Take `COc1cc(OC)c(C(=O)NCC2(N(C)C)CCCCC2)cc1OC`: the Tm shift relative to glycine control was inactive: 1.71%.

For `O=C(NCC1(N2CCCCC2)CCCCC1)c1cncc(Br)c1`, the Tm shift relative to glycine control was inactive: 1.88%. In the case of `CN1CCC(Nc2cccc(F)c2)CC1` it was inactive: 0.35%; in that of `CCCOc1ccc(C(=O)NCC2(N(C)C)CCCCC2)cc1OC`, inactive: 1.21%. Next, `O=C(NCC1(N2CCCCC2)CCCCC1)c1ccc(OC(F)F)cc1`: inactive: -1.31%; `N#CC1(Nc2ccccc2)CCN(CCc2ccccc2)CC1`: inactive: 3.68%; `CCN1CCC(Nc2ccc(Cl)cc2)CC1`: inactive: -3%. In the case of `O=C(NCC1(N2CCCCC2)CCCCC1)c1cccc([N+](=O)[O-])c1` it was inactive: 0.45%; in that of `CSc1ccc(C(=O)NCC2(N3CCOCC3)CCCCC2)cc1`, inactive: -0.93%. Consider `O=C(NCC1(N2CCCCC2)CCCCC1)c1cccc(C(F)(F)F)c1`, for which the Tm shift relative to glycine control was inactive: -0.09%. For `COc1cc(C(=O)NCC2(N3CCCCC3)CCCCC2)ccc1OC(F)F`, the Tm shift relative to glycine control is inactive: -0.2%. Next, `O=C(NCC1(N2CCOCC2)CCCCC1)c1cc(=O)[nH]c2ccccc12`: inactive: -14%. Next, `CN1CCN(CCOC(=O)C(O)(c2ccccc2)c2ccccc2)CC1`: inactive: -2.36%. On to `COc1ccc(NC2CCN(C(=O)OC(C)(C)C)CC2)cc1`, for which the Tm shift relative to glycine control is inactive: -0.95%.

Take `CC(C)c1ccc(C(=O)NCC2(N3CCOCC3)CCCCC2)cc1`: the Tm shift relative to glycine control is inactive: -3.9%. Next, `O=C1CCN(Cc2ccccc2)CC1`: inactive: 0.8%; `CCOc1ccc(C)cc1CN(CCCl)CCCl`: inactive: 2.22%. On to `COc1ccc(NC2CCN(CCc3ccccc3)CC2)c(OC)c1`, for which the Tm shift relative to glycine control is inactive: -4.44%. Next, `CCOC(=O)N1CCC(Nc2ccc(F)cc2)CC1`: inactive: 0.91%. Next, `O=C(NCC1(N2CCCCC2)CCCCC1)c1ccc(F)cc1`: inactive: -0.09%; `O=P1(N(CCCl)CCCl)SCCCS1`: inactive: 0.6%.

For `CCCCOc1ccc(C(=O)NCC2(N3CCOCC3)CCCCC2)cc1`, the Tm shift relative to glycine control is inactive: -0.08%. In the case of `COc1cc(C(=O)NCC2(N(C)C)CCCCC2)ccc1OC(F)F` it was inactive: -4.51%; in that of `CCOC(=O)N1CCC(Nc2cccc(C)c2)CC1`, inactive: 0.2%. In the case of `COc1ccc(C(=O)NCC2(N3CCCCC3)CCCCC2)c(OC)c1OC` it was inactive: 9.11%; in that of `CC(C)(C)OC(=O)N1CCC(N(C(=O)c2ccccc2)c2ccc(F)cc2)CC1`, inactive: -0.19%; in that of `COc1ccc(C(=O)NCC2(N3CCCCC3)CCCCC2)cc1`, inactive: -0.6%. In the case of `O=C(NCC1(N2CCCCC2)CCCCC1)c1cccs1` it was inactive: 1.43%. With `O=C(NCC1(N2CCCCC2)CCCCC1)c1ccc(=O)[nH]c1`, the Tm shift relative to glycine control is inactive: 2.43%. For the molecule `Cc1cccc(NC2(C#N)CCN(Cc3ccccc3)CC2)c1`, the Tm shift relative to glycine control was inactive: 0.42%. `CSc1ccccc1C(=O)NCC1(N2CCCCC2)CCCCC1`: the Tm shift relative to glycine control was inactive: 1.13%. For the molecule `Cc1cc(C)cc(N(C(=O)c2ccccc2)C2CCN(C(=O)OC(C)(C)C)CC2)c1`, the Tm shift relative to glycine control is inactive: -8.54%. Next, `O=C(NCC1(N2CCCCC2)CCCCC1)c1ccc(Cl)nc1`: inactive: 0.64%; `O=C(NCC1(N2CCOCC2)CCCCC1)c1cc2ccccc2o1`: inactive: -1.49%; `COc1ccc(Cl)cc1C(=O)NCC1(N2CCOCC2)CCCCC1`: inactive: 2.5%. As to `O=C(OC1CN2CCC1CC2)C1c2ccccc2Oc2ccccc21` (stereo not given), the Tm shift relative to glycine control is inactive: 0.55%. In the case of `O=C(NCC1(N2CCCCC2)CCCCC1)c1ccc(Cl)s1` it was inactive: -0.83%; in that of `N#CC1(Nc2ccccc2)CCN(Cc2ccccc2)CC1`, inactive: -0.21%; in that of `CCOC(=O)N1CCC(Nc2ccc(OC)cc2)CC1`, inactive: -0.68%. Next, `CN1CCC(Nc2ccc(F)c(Cl)c2)CC1`: inactive: 1.55%. In the case of `CCOc1ncccc1C(=O)NCC1(N2CCOCC2)CCCCC1` it was inactive: 0.37%; in that of `O=C(O)C1(Nc2ccccc2)CCN(Cc2ccccc2)CC1`, inactive: 0%; in that of `CC(C)(C)OC(=O)N1CCC(Nc2ccccc2)CC1`, inactive: -3.1%.

Consider `CCCOc1ccc(C(=O)NCC2(N(C)C)CCCCC2)cc1`, for which the Tm shift relative to glycine control was inactive: 6.55%.

As to `COc1cc(OC)cc(C(=O)NCC2(N3CCOCC3)CCCCC2)c1`, the Tm shift relative to glycine control is inactive: -0.67%. As for `COc1cccc(C(=O)N(c2cc(C)cc(C)c2)C2CCN(C(=O)OC(C)(C)C)CC2)c1`, the Tm shift relative to glycine control is inactive: -2.51%. Turning to `CCC(CO)(C(=O)OC1CN2CCC1CC2)c1ccccc1` (stereo not given), the Tm shift relative to glycine control was inactive: 1.3%. With `CN1CCC(Nc2ccc(Cl)cc2)CC1`, the Tm shift relative to glycine control is inactive: 1.08%. Consider `CC(=O)N(c1ccccc1)C1CCNCC1`, for which the Tm shift relative to glycine control is inactive: -1.18%.

Take `COc1cc(OC)cc(C(=O)NCC2(N3CCCCC3)CCCCC2)c1`: the Tm shift relative to glycine control was inactive: -2.8%. In the case of `Fc1ccccc1NC1CCN(Cc2ccccc2)CC1` it was inactive: -0.09%; in that of `Cc1ccc(C(=O)NCC2(N3CCCCC3)CCCCC2)o1`, inactive: -1.05%.

As for `Cc1ccc(NC2(C#N)CCN(Cc3ccccc3)CC2)cc1`, the Tm shift relative to glycine control is inactive: 1.76%. In the case of `CCN1CCC(Nc2cccc(F)c2)CC1` it was inactive: -1.46%; in that of `Cc1ccccc1NC1(C#N)CCN(Cc2ccccc2)CC1`, inactive: 0.6%.

Consider `Cn1c(=O)[nH]cc(N(CCCl)CCCl)c1=O`, for which the Tm shift relative to glycine control was inactive: 1.61%. Take `CN(C)c1ccc(C(=O)NCC2(N3CCCCC3)CCCCC2)cc1`: the Tm shift relative to glycine control was inactive: -0.31%. In the case of `O=C(NCC1(N2CCCCC2)CCCCC1)c1ccco1` it was inactive: -1.58%.

As for `N#Cc1ccc(C(=O)NCC2(N3CCCCC3)CCCCC2)cc1`, the Tm shift relative to glycine control is inactive: 1.48%. In the case of `CC(C)(C)OC(=O)N1CCC(N(C(=O)c2ccccc2)c2ccc(Cl)cc2)CC1` it was inactive: -2.63%; in that of `CN(C)C1(CNC(=O)c2cccc(C#N)c2)CCCCC1`, inactive: 1.06%. Next, `CCCN1CCC(Nc2cc(OC)cc(OC)c2)CC1`: inactive: 2.82%. Turning to `Cc1cc(N(CCCl)CCCl)ccc1C=O`, the Tm shift relative to glycine control was inactive: -1%.

As to `c1ccc(CN2CCC(Nc3ccccc3)CC2)cc1`, the Tm shift relative to glycine control is inactive: 1.5%. In the case of `COc1cc(C(=O)NCC2(N3CCOCC3)CCCCC2)cc(OC)c1C` it was inactive: 0.17%.

On to `O=C(NCC1(N2CCOCC2)CCCCC1)c1cc(Br)ccc1Cl`, for which the Tm shift relative to glycine control was inactive: 1.49%. In the case of `COc1ccc(C(=O)NCC2(N3CCOCC3)CCCCC2)cc1OC` it was inactive: -1.2%; in that of `CCOC(=O)N1CCC(Nc2ccc(C)cc2)CC1`, inactive: 1.55%. As for `N/C(=N\O)c1c(N)no[n+]1[O-]`, the Tm shift relative to glycine control is inactive: -0.09%. In the case of `O=C(OC1CN2CCC1CC2)C1c2ccccc2C=Cc2ccccc21` (stereo not given) it was inactive: -0.88%; in that of `CCc1cc(C(=O)NCC2(N3CCCCC3)CCCCC2)sc1C`, inactive: -0.42%.
